The values below come from PubChem BioAssay AID720523 (National Center for Advancing Translational Sciences (NCATS), 2013).

Most of the hits are listed elsewhere, so they are rarer here than in the full data. Inconclusive results are not listed. Calls of active or inactive are those of the source. Calls follow the shape of the dose curve; as a rule, active = well fitted inhibition curve with a large enough effect; inconclusive = small, poorly fitted or top-dose-only effect; inactive = flat fitted curve, though single readings scatter.
% is scaled to controls: 0 for no effect and ±100 for the full control effect.

The experiment is described as follows: Nrf2 qHTS screen for inhibitors: A549 ARE-Fluc Cytotoxicity Counterscreen for Hit Validation.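 Also: cells exposed to compounds for 18 to 24 hours.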 Conditions: A549 ARE-Fluc cells; at 46.1 µM (top of the series). An excerpt: Nrf2 is a transcription factor that maintains cellular redox homoestasis and protects cells from xenobiotics. Nrf2 binds to the antioxidant response element (ARE) to induce gene expression of a broad spectrum of genes that encode for antioxidants. […] Finding a small molecule that act as an inhibitor of Nrf2 function would represent a novel therapeutic target that could lead to improvement in survival of patients undergoing chemo- and/or radio- therapy.
In collaboration with the Biswal laboratory, a cell based, luminescence assay (BugLite) was developed to detect the Nrf2 activity using the A549 ARE_Fluc cells (AID 504648). This assay was coupled with a fluorescence based (CellTiter Fluor) cytotoxicity assay to identify and exclude toxic compounds. […] The data herein is the result of the CellTiter Fluor assay where decrease in fluorescence signal = cytotoxicity. […]
Five uL of cell suspension was dispensed into 1536-well white TC-treated plate using the Kalypsys dispenser to achieve a density of 5000 cells/well in all columns except column 1. […] The fluorescence signal was read using the PerkinElmer ViewLux plate reader (Ex = 405 nm /Em = 525 nm) for a 3 second exposure. […] A second ViewLux read (40 sec exposure) was performed to detect the luminescence signal. Cytotoxicity was assessed through the first fluorescent read while biochemical activity against Nrf2 was measured in the luminescent read. […]
(In qHTS, concentration-response curves come from the screen itself.)
In the case of `N=C(N)c1ccc(OCCCCCOc2ccc(C(=N)N)cc2)cc1`, the activity change, negative = cytotoxicity is inactive: -8.81%.
